Laboratory results as given in patent publication US20220233512A1, “INHIBITING AN IMMUNE RESPONSE MEDIATED BY ONE OR MORE OF TLR2, RAGE, CCR5, CXCR4 AND CD4” (priority 2020, published 2022).

The chains behind the UniProt entries cited, without tags or fusion partners.
UniProt P33535, whole entry: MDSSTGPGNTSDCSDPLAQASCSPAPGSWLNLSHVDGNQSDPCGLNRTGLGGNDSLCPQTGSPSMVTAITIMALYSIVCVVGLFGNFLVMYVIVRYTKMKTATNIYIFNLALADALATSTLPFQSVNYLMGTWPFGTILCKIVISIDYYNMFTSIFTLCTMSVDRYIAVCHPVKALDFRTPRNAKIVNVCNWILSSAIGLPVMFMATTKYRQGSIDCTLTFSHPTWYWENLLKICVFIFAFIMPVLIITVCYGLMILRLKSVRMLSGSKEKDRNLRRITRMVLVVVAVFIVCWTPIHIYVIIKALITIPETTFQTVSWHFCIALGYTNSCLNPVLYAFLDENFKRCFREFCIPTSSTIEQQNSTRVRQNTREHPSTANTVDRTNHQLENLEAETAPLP

Target: T1, mu opiate receptor (MOR) (Rattus norvegicus, UniProt P33535)
T1 construct: from tissue; host or cells: striatum (membrane preparation)
Test: MOR agonist activity using [35S]GTPgS binding assay in striatal membranes
Assay type: biochemical
Conditions: Series C-2 table

O=S(=O)(c1ccc(F)cc1)N1CCOC12CCN(CC1CC1)CC2 [F-C0134]
MOR agonist activity ([35S]GTPgS binding to Gao) (0.1 μM compound as agonist): 290.6%
MOR agonist activity ([35S]GTPgS binding to Gao) (1 μM + BFNA): 66.6%
MOR agonist activity ([35S]GTPgS binding to Gao) (1 μM compound as agonist): 378.9%
